Sequences of proteins named here, by UniProt entry; tags and fusion partners are left off. Residues count along the entry.
UniProt Q00961, 20-1237: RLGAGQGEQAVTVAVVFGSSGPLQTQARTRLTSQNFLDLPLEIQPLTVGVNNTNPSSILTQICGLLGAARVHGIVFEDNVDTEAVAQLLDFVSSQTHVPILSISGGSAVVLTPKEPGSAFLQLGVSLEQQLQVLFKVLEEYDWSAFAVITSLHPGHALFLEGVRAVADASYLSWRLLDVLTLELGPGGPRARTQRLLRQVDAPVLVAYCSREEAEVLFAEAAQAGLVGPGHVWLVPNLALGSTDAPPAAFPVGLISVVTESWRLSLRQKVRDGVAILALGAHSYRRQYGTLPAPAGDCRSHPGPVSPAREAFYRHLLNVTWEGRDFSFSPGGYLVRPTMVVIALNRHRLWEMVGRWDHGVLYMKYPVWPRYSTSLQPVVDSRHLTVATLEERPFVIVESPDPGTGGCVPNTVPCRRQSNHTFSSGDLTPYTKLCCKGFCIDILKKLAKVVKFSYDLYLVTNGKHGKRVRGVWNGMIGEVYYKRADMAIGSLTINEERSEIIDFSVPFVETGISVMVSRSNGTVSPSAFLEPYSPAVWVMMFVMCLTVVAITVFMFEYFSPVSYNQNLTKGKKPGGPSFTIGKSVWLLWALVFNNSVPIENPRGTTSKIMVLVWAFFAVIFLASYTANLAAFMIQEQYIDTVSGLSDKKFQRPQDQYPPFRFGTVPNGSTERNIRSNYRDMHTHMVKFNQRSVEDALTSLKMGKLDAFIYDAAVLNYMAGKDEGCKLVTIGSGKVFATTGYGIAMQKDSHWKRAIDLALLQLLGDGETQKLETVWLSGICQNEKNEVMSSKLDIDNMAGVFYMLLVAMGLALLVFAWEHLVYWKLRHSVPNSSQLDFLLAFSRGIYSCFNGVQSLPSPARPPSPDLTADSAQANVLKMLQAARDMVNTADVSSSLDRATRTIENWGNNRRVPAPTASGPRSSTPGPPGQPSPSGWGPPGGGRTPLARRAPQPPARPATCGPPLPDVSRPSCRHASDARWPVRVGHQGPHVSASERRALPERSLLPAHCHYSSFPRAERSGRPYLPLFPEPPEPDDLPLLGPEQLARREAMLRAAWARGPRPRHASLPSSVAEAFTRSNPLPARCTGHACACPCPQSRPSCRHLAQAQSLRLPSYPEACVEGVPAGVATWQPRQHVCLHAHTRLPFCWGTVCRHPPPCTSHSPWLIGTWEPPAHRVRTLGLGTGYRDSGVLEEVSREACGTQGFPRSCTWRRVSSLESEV
UniProt Q62645, 28-1323: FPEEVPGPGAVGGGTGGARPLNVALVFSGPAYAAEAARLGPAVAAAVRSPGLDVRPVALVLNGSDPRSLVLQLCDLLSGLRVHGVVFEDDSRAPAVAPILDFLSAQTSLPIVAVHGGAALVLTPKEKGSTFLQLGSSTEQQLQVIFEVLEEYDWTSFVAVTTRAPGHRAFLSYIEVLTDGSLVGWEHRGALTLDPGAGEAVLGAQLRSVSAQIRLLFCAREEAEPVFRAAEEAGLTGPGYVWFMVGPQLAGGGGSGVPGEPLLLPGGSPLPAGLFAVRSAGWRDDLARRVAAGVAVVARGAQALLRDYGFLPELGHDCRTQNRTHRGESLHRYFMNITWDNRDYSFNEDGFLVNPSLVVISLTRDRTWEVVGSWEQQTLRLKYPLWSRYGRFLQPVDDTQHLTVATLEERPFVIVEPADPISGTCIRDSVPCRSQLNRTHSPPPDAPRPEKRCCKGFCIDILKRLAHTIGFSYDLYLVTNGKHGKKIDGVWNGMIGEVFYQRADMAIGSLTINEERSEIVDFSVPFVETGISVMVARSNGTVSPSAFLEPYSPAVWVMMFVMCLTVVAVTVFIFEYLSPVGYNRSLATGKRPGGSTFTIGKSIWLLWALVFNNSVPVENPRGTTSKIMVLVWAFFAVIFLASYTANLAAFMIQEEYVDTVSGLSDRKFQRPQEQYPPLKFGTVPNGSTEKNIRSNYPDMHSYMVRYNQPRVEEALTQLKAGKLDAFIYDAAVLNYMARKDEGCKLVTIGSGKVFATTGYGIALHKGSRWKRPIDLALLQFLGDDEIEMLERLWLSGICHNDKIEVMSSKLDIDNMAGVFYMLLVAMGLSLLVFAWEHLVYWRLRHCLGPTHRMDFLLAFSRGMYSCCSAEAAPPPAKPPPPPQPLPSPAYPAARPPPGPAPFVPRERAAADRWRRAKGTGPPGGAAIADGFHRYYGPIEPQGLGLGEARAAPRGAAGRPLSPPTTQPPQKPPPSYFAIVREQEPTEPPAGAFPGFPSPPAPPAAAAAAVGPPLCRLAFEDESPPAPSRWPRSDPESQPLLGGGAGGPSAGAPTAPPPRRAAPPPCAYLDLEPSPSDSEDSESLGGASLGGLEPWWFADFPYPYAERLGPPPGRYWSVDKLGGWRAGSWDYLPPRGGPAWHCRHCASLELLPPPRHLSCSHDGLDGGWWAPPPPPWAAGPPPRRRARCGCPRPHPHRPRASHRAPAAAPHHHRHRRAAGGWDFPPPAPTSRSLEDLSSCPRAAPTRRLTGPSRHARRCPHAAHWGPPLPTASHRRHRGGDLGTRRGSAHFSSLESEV

According to paper PMC7961853 (Journal of medicinal chemistry, 2020):

Experiments:
[1] = biological target: GluN1/GluN2C (Rattus norvegicus, UniProt Q00961); settings: LLE = p(doubling conc.) − cLogP
[2] = biological target: GluN1/GluN2D (Rattus norvegicus, UniProt Q62645); settings: LLE = p(doubling conc.) − cLogP
[3] = tested on: GluN2C- and GluN2D-containing receptors; experiment: TEVC recordings, values stated in text jointly for GluN2C/D; format: cell-based, rat; settings: value or range over GluN2C and GluN2D

COc1ccc(OC[C@H]2c3cccn3CCN2C(=O)c2cccc(C(F)(F)F)c2)cc1 [R-(+)-25j]
LLE GluN2C [1]: 1.2 | LLE GluN2D [2]: 1.3

COc1ccc(OCC2c3ccc(OC)cc3CC(=O)N2CCCC(F)(F)F)cc1 (stereo not shown) [12f, 6-Methoxy-1-((4-methoxyphenoxy)methyl)-2-(4,4,4-trifluorobutyl)-1,2-dihydroisoquinolin-3(4H)-one]
LLE GluN2C [1]: 0.9 | LLE GluN2D [2]: 1.0

COc1ccc(OCC2c3sccc3CCN2C(=O)c2ccc(Cl)s2)cc1 (stereo not shown) [25b, (5-Chlorothiophen-2-yl)(7-((4-methoxyphenoxy)methyl)-4,7-dihydrothieno[2,3-c]pyridin-6(5H)-yl)methanone]
LLE GluN2C [1]: −0.1 | LLE GluN2D [2]: 0.2

COc1ccc(OCC2c3sccc3CCN2C(=O)c2cccc(Cl)c2)cc1 (stereo not shown) [25a, (3-Chlorophenyl)(7-((4-methoxyphenoxy)methyl)-4,7-dihydrothieno[2,3-c]pyridin-6(5H)-yl)methanone]
pEC50 at GluN2C/D [3]: 5.4 | LLE GluN2C [1]: −0.3 | LLE GluN2D [2]: 0.0

COc1ccc(OCC2c3ccsc3CCN2C(=O)c2cccc(Cl)c2)cc1 (stereo not shown) [25h, (3-Chlorophenyl)(4-((4-methoxyphenoxy)methyl)-6,7-dihydrothieno[3,2-c]pyridin-5(4H)-yl)methanone]
LLE GluN2C [1]: −0.1 | LLE GluN2D [2]: −0.2

COc1ccc(OCC2c3ccccc3CCN2C(=O)c2cccc(Cl)c2)cc1 (stereo not shown) [compound 36]
LLE GluN2C [1]: −1.0/−1.0 | LLE GluN2D [2]: −1.0/−1.0

COc1ccc(OCC2c3cccn3CCN2C(=O)c2cccc(C(F)(F)F)c2)cc1 (stereo not shown) [25j, (1-((4-Methoxyphenoxy)methyl)-3,4-dihydropyrrolo[1,2-a]-pyrazin-2(1H)-yl)(3-(trifluoromethyl)phenyl)methanone]
LLE GluN2C [1]: 1.0 | LLE GluN2D [2]: 0.5

COc1ccc(OCC2c3cc(OC)sc3CCN2C(=O)c2cccc(Cl)c2)cc1 (stereo not shown) [25d, (3-Chlorophenyl)(2-methoxy-4-((4-methoxyphenoxy)methyl)-6,7-dihydrothieno[3,2-c]pyridin-5(4H)-yl)methanone]
LLE GluN2C [1]: −1.1 | LLE GluN2D [2]: −1.2

COc1ccc(OCC2c3sccc3CCN2C(=O)/C=C/C(F)(F)F)cc1 (stereo not shown) [25c, (E)-4,4,4-Trifluoro-1-(7-((4-methoxyphenoxy)methyl)-4,7-dihydrothieno[2,3-c]pyridin-6(5H)-yl)but-2-en-1-one]
pEC50 at GluN2C/D [3]: 4.8–4.9 | LLE GluN2C [1]: 1.2 | LLE GluN2D [2]: 1.3

COc1ccc(OCC2c3occc3CCN2C(=O)c2cccc(Cl)c2)cc1 (stereo not shown) [25f, (3-Chlorophenyl)(7-((4-methoxyphenoxy)methyl)-4,7-dihydrofuro[2,3-c]pyridin-6(5H)-yl)methanone]
LLE GluN2C [1]: 0.3 | LLE GluN2D [2]: 0.4

COc1ccc(OC[C@H]2c3cccn3CC(=O)N2Cc2cccc(C(F)(F)F)c2)cc1 [R-(+)-31a]
LLE GluN2C [1]: 0.8 | LLE GluN2D [2]: 1.0

COc1ccc(OC[C@H]2c3cccn3CCN2C(=O)c2cccc(Cl)c2)cc1 [R-(+)-25i]
LLE GluN2C [1]: 1.2 | LLE GluN2D [2]: 1.3

COc1ccc(OCC2c3cccn3CC(=O)N2Cc2cccc(C(F)(F)F)c2)cc1 (stereo not shown) [31a, 1-((4-Methoxyphenoxy)methyl)-2-(3-(trifluoromethyl)benzyl)-1,2-dihydropyrrolo[1,2-a]pyrazin-3(4H)-one]
LLE GluN2C [1]: 0.7 | LLE GluN2D [2]: 0.9
